Data published in patent US20070134286A1, “Methods for reducing intimal hyperplasia, smooth muscle cell proliferation and restenosis in mammals” (priority 2004, published 2007).
Read-outs that look alike come from different tables or passages of the source.

Test system: human coronary artery smooth muscle cells
Test: 3H-thymidine incorporation (DNA synthesis / cell proliferation)
Assay type: cell-based
Method: Thvmidine incorporation: Cells were plated at 1×10^6 cells/ml, 200 μl/well into 96-well plates (Costar 3595—Cole-Parmer Instrument Company, Vernon Hills, Ill.). One day after plating, the cells were treated with test agents for 24 hours and then labeled with 0.3 μCi/well of ^3H-thymidine for another 48 hours. Each well was washed with 0.3 ml/well of PBS, incubated with 0.2 ml/well of ice-cold 10% trichloroacetic acid (hereinafter “TCA”) for 30 minutes at 4° C., and then followed by another wash of 0.2 ml/well of TCA. Samples were dissolved in MICROSCINT™ 20 before counting. Data shown are mean ± the standard deviation (n=4).
Thymidine incorporation: Cells were plated at 1×10^6 cells/ml, 200 μl/well into 96-well plates (Costar). One day after plating, the cells were treated with test agents for 24 hr and then labeled with 0.3 μCi/well of ^3H-thymidine for another 48 hr. Each well was washed with 0.3 ml/well of PBS, incubated with 0.2 ml/well of ice-cold 10% trichloroacetic acid (TCA) for 30 min at 4° C., and then followed by another wash of 0.2 ml/well of TCA. Samples were dissolved in MICROSCINT™ 20 (Packard) before counting.

SMILES: C=C1/C(=C\C=C2/CCC[C@]3(C)[C@@H]([C@H](C)CCCC(C)(C)O)CC[C@@H]23)C[C@@H](O)C[C@@H]1O [calcitriol, 1-alpha-25-dihydroxyvitamin D3]
- EC50 (Example 1, CASMC, FIG. 4, read-out: EC50 inhibiting DNA synthesis ([3H]-thymidine incorporation)): 0.111 ± 0.02 nM
- EC50 (Example 2, FIG. 8, read-out: EC50 inhibition of 3H-thymidine incorporation): 0.11 nM
- inhibition at 0.01 µM (Example 2, at 10 nM, compared to cells in growth medium): 46%
